Compound activity: PubChem, National Center for Advancing Translational Sciences (NCATS)
Hits are enriched below; roughly 2.2% of the tested compounds scored in any of these assays.
A549 tox = kills or reduces viability of A549 cells in Nrf2 counter-screen | A549 ARE-Fluc cells, CellTiter-Fluor viability, 18-24 h | Potency, µM (top dose mostly 46 µM), for inactives: top-dose activity change, negative = cytotoxicity, usual class: inhibitors | 390,000 compounds, 0.16% hits | AID 504648; also: potency is read from the fitted curve at half-maximal effect; % is scaled to controls: 0 for no effect and ±100 for the full control effect
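Cytotoxicity counterscreen: CellTiter-Fluor fluorescence was measured in A549 ARE_Fluc cells after 18-24 h of compound exposure in a concentration series. The subsequent BugLite luminescent read reports ARE-luciferase activity.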
Nrf2 block = Nrf2 pathway inhibition; Potency, µM (series often up to 46 µM), for the others: at the top dose activity change, negative = inhibition, hits mostly inhibitors; A549 ARE-Fluc reporter, luciferase luminescence, 18-24 h; 360,000 compounds, 2.1% hits; also: potency is read from the fitted curve at half-maximal effect; % is scaled to controls: 0 for no effect and ±100 for the full control effect; nearly all actives have a fitted effect of over 60% in size
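A549 ARE_Fluc cells, 5000/well, 5% FBS OPTI-MEM; compounds in dose-response, 18-24 h at 37 °C/5% CO2; CellTiter-Fluor viability read (Ex 405/Em 525), then BugLite luciferase luminescence = Nrf2 activity.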
B2AR arrestin = beta2AR (human) beta-arrestin recruitment activity | P07550 | beta-arrestin recruitment to beta2AR, cell-based reporter | Potency, µM (series often up to 46.1 µM), for the others: at the top dose activation, most hits filed as activators | 330,000 compounds, 0.02% hits | AID 492947;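 also: potency is read from the fitted curve at half-maximal effect; 0% = DMSO controls and full agonism = EC100 isoproterenol or metaproterenol; nearly all actives have a fitted effect of over 65% in size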
miR-21 reporter = miR-21 reporter, rising signal | HeLa miR-21 FLuc reporter, luciferase, 48 h | Potency, µM (doses to about 38.3 µM), inactives show at the top dose reporter change, positive = more light | 340,000 tested, under 10 active | AID 2288; active = well fitted rising curve with a large enough effect; inconclusive = small, poorly fitted or top-dose-only effect; inactive = no such curve, though single readings can be large or run the other way;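 note: % of control where 0% means no effect; miR-21 action dims this reporter so a rising signal means less miR-21 action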
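Luminescence from a firefly luciferase reporter carrying a miR-21 binding site downstream, stably expressed under a CMV promoter in HeLa cells that make miR-21 endogenously, reports miRNA modulation after 48 h compound exposure up to approximately 40uM final.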
Nrf2 ARE act = activates Nrf2 signaling; AREc32 ARE-luciferase reporter (MCF7-derived line), luminescence, 24 h; Potency, µM (titrated, usually from 46.1 µM), without a hit: top-dose activation, actives largely listed as activators; 410,000 compounds, 0.31% hits; also: potency is read from the fitted curve at half-maximal effect; % of control where 0% means no effect; nearly all actives have a fitted effect of over 65% in size
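Reporter line AREc32 (ARE-Fluc), seeded overnight in OPTI-MEM with 5% FBS; compound pin-transferred, 24 hr at 37 deg C, 5% CO2; luminescent read-out.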
The depositor's hits bear a star; u = inconclusive; x = no result. Unless noted, calls follow the shape of the dose curve; as a rule, active = well fitted curve in the direction sought with a large enough effect; inconclusive = small, poorly fitted or top-dose-only effect, or another doubt; inactive = no such curve, though single readings can be large; an effect the other way counts as inactive or inconclusive.

mol	A549 tox	Nrf2 block	B2AR arrestin	miR-21 reporter	Nrf2 ARE act
COC(=O)c1ccc(C(=O)N2CCCC(Nc3ccc(C(C)C)cc3)C2)cc1 (stereo unspecified)	0.8%	u	-0.4%	-0.9%	3.6%
CC(C)c1ccc(NC2CCCN(C(=O)c3n[nH]c4c3CCC4)C2)cc1 (stereo unspecified)	-8.6%	10.3µM*	0.2%	18.6%	0.4%
N#CC(=C1C=CC(=NO)C(Cl)=C1)c1ccc(Cl)cc1	-2.9%	8.6%	x	x	u
COc1ccc(C(C#N)=C2C=CC(=NO)C=C2)cc1	-10.4%	-3.5%	6.2%	u	1.26µM*
COc1ccc(CCNc2ccc(N3C(=O)CC(C)C3=O)cc2[N+](=O)[O-])cc1OC (stereo unspecified)	-29.8%	14.6µM*	-0.6%	20.8%	2.5%
COc1ccc(CCNc2ccc(N3C(=O)CC(C)C3=O)cc2[N+](=O)[O-])cc1 (stereo unspecified)	-15.4%	0.1%	-0.5%	-0.5%	0.2%
COc1ccc(S(=O)(=O)Nc2cc3c(cc2NCc2ccccc2)n(C)c(=O)n3C)cc1	-3.6%	-8.6%	x	-49.6%	11.2µM*
Cc1ccc(/C=N/N2C(=S)SC(C)(C)C2N(O)C(=O)Nc2ccc([N+](=O)[O-])cc2)cc1 (stereo unspecified)	u	u	-0.2%	-8.1%	0.9%
CC1(C)SC(=S)N(/N=C/c2ccc(O)cc2)C1N(O)C(=O)Nc1ccc([N+](=O)[O-])cc1 (stereo unspecified)	u	16.4µM*	0.4%	22.2%	10.2%
CC1(C)CC(=O)C2=C(C1)NC(Nc1nc3ccccc3o1)=NC2c1cccc(F)c1 (stereo unspecified)	-1.0%	3.5%	x	x	x
Cc1cccc(C(=O)Nc2cccc(C(=O)OCc3cc(=O)n4nc(C5CC5)sc4n3)c2)c1	-6.5%	x	x	-52.2%	4.7%
Cc1ccc(CCNC(=O)CCN2N=C(c3ccc(C)cc3)CCC2=O)cc1	4.9%	x	x	1.6%	5.6%
CCCCS(=O)(=O)c1oc(-c2ccc(F)cc2)nc1S(=O)(=O)c1ccccc1	u	20.6µM*	x	u	u
CCS(=O)(=O)c1oc(-c2ccc(F)cc2)nc1S(=O)(=O)c1ccc(Br)cc1	u	u	x	u	0.0%
CCOc1[nH]c(/N=C/c2ccc(OC)cc2)c(C#N)c1C#N	-1.5%	-3.5%	x	x	x
CCCCNc1ncnc2oc(-c3ccco3)c(-c3ccco3)c12	-14.4%	20.6µM*	x	x	x
Cn1nc(C(=O)NCc2ccc(F)cc2)c2c1-c1ccccc1S(=O)(=O)C2	-10.2%	10.3µM*	0.3%	5.4%	-3.5%
CNC(=S)N(CCc1c(C)[nH]c2ccc(C)cc12)Cc1ccco1	-2.9%	-11.8%	-1.7%	4.8%	7.6%
CCNC(=S)N(CCc1c(C)[nH]c2ccc(Cl)cc12)Cc1ccco1	u	20.6µM*	-0.1%	u	-1.7%
Nc1ccc2c(c1)Cc1c(F)cccc1-2	1.0%	u	x	x	10µM*
Nc1ccc2c(c1)Cc1cc(Cl)c(Cl)cc1-2	-2.2%	u	x	x	2.9%
COc1ccc(-c2nnc3ccc(SC(C)C)nn23)cc1OC	-17.2%	u	x	x	x
O=C(Cc1cccc2ccccc12)NCC(=O)N1CCN(CC(=O)Nc2ccc(F)cc2)CC1	x	x	x	x	-1.8%
O=C(Cc1cccc2ccccc12)NCC(=O)N1CCN(Cc2cccc(C(F)(F)F)c2)CC1	-13.0%	20.6µM*	0.2%	x	0.9%

Two records drawn at random from the list so far, as already listed:
mol	A549 tox	Nrf2 block	B2AR arrestin	miR-21 reporter	Nrf2 ARE act
CCNC(=S)N(CCc1c(C)[nH]c2ccc(Cl)cc12)Cc1ccco1	u	20.6µM*	-0.1%	u	-1.7%
N#CC(=C1C=CC(=NO)C(Cl)=C1)c1ccc(Cl)cc1	-2.9%	8.6%	x	x	u

Next structures
mol	A549 tox	Nrf2 block	B2AR arrestin	miR-21 reporter	Nrf2 ARE act
Cc1ccccc1OCC(=O)NCC(C)NC(=O)COc1ccccc1C (stereo unspecified)	-0.5%	-21.5%	x	x	x
N=c1c2c(ncn1-c1ccccc1)Oc1ccc3ccccc3c1C2c1ccc2c(c1)CCO2 (stereo unspecified)	16.4µM*	u	x	x	x
CCOc1ccc(C2c3c(ncn(-c4ccccc4)c3=N)Oc3ccc4ccccc4c32)cc1OCC (stereo unspecified)	20.6µM*	16.4µM*	x	x	x
C=CCNC1=C(Cl)C(=O)c2ccccc2C1=O	u	16.4µM*	-1.5%	0.9%	u
COCCCNC1=C(Cl)C(=O)c2ccccc2C1=O	-13.8%	25.9µM*	0.2%	-2.9%	-1.7%
CC(C)OCCCNC1=C(Cl)C(=O)c2ccccc2C1=O	-18.0%	u	0.3%	-20.7%	26.0%
Cc1cc(NC(=O)COC(=O)C(Nc2ccc(C(F)(F)F)cc2Cl)C(C)C)no1 (stereo unspecified)	23.1µM*	23.1µM*	-0.4%	20.1%	0.3%
Cc1ccc(NS(=O)(=O)c2ccc3c(c2)N(C)C(=O)CO3)cc1C	0.9%	u	x	x	x
O=C(Nc1ccc(C(=O)N2CCN(c3cccc(Cl)c3)CC2)cc1)c1nsc2ccccc12	-0.3%	x	x	-23.0%	0.0%
COc1ccc(OCC(=O)Nc2c3c(nn2C(C)(C)C)CSC3)cc1	-6.4%	11.6µM*	-0.1%	23.9%	0.7%
O=C(/C=C/c1ccc(O)cc1)c1ccc(NC2=C(N3CCCCC3)C(=O)c3ccccc3C2=O)cc1	u	14.6µM*	0.5%	16.4%	6.4%
NC(=O)CSc1ccc2nnc(-c3ccncc3)n2n1	-4.4%	2.3%	x	x	x

(cont.)
The line under a structure holds: A549 tox	Nrf2 block	B2AR arrestin	miR-21 reporter	Nrf2 ARE act
CC(C)C[C@H](NC(=O)OC(C)(C)C)C(=O)N/N=C/C1=Cc2ccccc2OC1C (stereo partly specified)
 : u	20.6µM*	0.2%	26.4%	3.1%
Cc1ccc(NC(=O)CN2C(=O)COc3ccc(S(=O)(=O)N4CCCCCC4)cc32)cc1C
 : u	u	x	7.9%	1.2%
COc1cccc(NC(=O)C2CCC(CNS(=O)(=O)c3ccc4c(c3)CCCC(=O)N4)CC2)c1 (stereo unspecified)
 : -1.2%	-18.9%	x	1.4%	u
COc1cc(C(=O)NCCCN(C)C)ccc1OCC(=O)Nc1cccc(C(F)(F)F)c1
 : 0.9%	-4.0%	0.0%	-8.4%	1.9%
COc1cccc(CN(C)C(=O)c2ccc(OCC(=O)Nc3cccc(C(F)(F)F)c3)c(OC)c2)c1
 : u	4.61µM*	0.0%	x	-0.8%
COc1ccc(CN(C)C(=O)c2ccc(OCC(=O)Nc3cccc(C(F)(F)F)c3)c(OC)c2)c(OC)c1
 : -21.2%	16.4µM*	0.1%	x	4.4%
CCC(CC)C(=O)Nc1cc(-c2cccc(C)c2)nn1-c1ccccc1
 : 9.3%	x	x	5.8%	-0.3%
CC(C)OC(=O)c1cccc2c1C(=O)c1ccccc1-2
 : 12.6%	21.6%	0.3%	-42.4%	11.2µM*
O=C(O)c1cccc2c1C(=O)c1ccccc1-2
 : 0.4%	1.1%	-0.7%	3.3%	1.8%
O=C(c1cccc(C(F)(F)F)c1)N1CCOC12CCN(c1ncc(C(F)(F)F)cc1Cl)CC2
 : -13.5%	25.9µM*	x	-6.1%	0.0%
Cc1ccc(NC(=O)c2cn(-c3ccccc3)nc2-c2ccccc2)cc1
 : 10.1%	18.6%	x	-1.5%	4.0%
Cc1nn(Cc2c(Cl)cccc2Cl)c(C)c1NC(=O)c1cn(-c2ccccc2)nc1-c1ccccc1
 : 13µM*	11.6µM*	0.9%	-2.9%	-1.6%

One compound at a time (already shown):
CCC(CC)C(=O)Nc1cc(-c2cccc(C)c2)nn1-c1ccccc1 as listed: A549 tox = 9.3%; Nrf2 block = x; B2AR arrestin = x; miR-21 reporter = 5.8%; Nrf2 ARE act = -0.3%
O=C(O)c1cccc2c1C(=O)c1ccccc1-2 as listed: A549 tox = 0.4%; Nrf2 block = 1.1%; B2AR arrestin = -0.7%; miR-21 reporter = 3.3%; Nrf2 ARE act = 1.8%
